PubChem BioAssay AID2012 (Sanford-Burnham Center for Chemical Genomics, 2009)
Only a part is listed here, and it is no random draw. Activity calls are given as the source filed them. The rule behind the calls is not given here.

These molecules were tested against Eukaryotic translation initiation factor 4H (Homo sapiens) (UniProt Q15056) (assay: eIF4H binding inhibition – biochemical, uHTS, fluorescence polarization, translation initiation inhibitor project, primary screen (AID 2012;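 note: calls also rest on retests at 20 µM and on dose response follow-up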)). Settings: eIF4H fluorescence polarization binding assay; at 35 µM; stronger effect = higher value.
With `CC(=O)NC(SC(=S)N(C)C)C(Cl)(Cl)Cl` (stereo unspecified) the inhibition was active: -0.7%.
For `C[N+]1=C2C=CC=CC=C2SC12C([N+](=O)[O-])=CC([N+](=O)[O-])=C[C-]2[N+](=O)[O-]` (stereo unspecified), the inhibition was active: 91.9%.
In the case of `O=[N+]([O-])c1cc([N+](=O)[O-])c(CCN2CCOCC2)c([N+](=O)[O-])c1`, the inhibition is reported as active: 95.2%.
For `O=[N+]([O-])c1cc([N+](=O)[O-])c(-c2ccn[nH]2)s1`, the inhibition was active: 88.2%.
With `CCOC(=O)Nc1ccc([As](=O)(O)O)c(O)c1` the inhibition was active: 57.8%.
In the case of `CS(=O)(=O)c1cc([N+](=O)[O-])c2no[n+]([O-])c2c1`, the inhibition is reported as active: 69.9%.
